Target: T1, GST-HPV-16 E6 (human papillomavirus type 16, UniProt P03126 1-158)
T1 construct: early protein 6 (E6) of human papillomavirus type 16; also called GST-E6; GST-16 E6; source: E. coli BL21, purified on glutathione Sepharose beads and kept on the beads
Assay: filter plate bead binding assay (BAP chemiluminescence); saturation binding: GST-E6 at 500 ng per well (400 nM) while E6AP-BAP concentration was increased
Details: both partners purified

Chains of the proteins cited; added tags and fusions are not shown.
UniProt P03126, whole entry: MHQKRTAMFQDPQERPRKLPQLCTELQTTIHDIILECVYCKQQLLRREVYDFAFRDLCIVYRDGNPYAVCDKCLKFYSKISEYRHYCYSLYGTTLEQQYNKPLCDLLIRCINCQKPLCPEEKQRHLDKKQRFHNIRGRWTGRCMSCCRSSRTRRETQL

B1: E6AP-BAP fusion protein (E6AP residues 371-440 fused to bacterial alkaline phosphatase) (domain or fragment, UniProt Q05086 371-440, looked up)
chain: ASKCLKMVYYANVVGGEVDTNHNEEDDEEPIPESSELTLQELLGEERRNKKGPRVDPLETELGVKTLDCR
notes: also called FLAG-tagged E6AP-BAP; source: E. coli BL21, purified (anti-FLAG resin, glycine pH 2.5 elution)
For B1, the Kd was 139 nM.
